According to US8513187B2, “Soft protease inhibitors, and pro-soft forms thereof” (priority 2009, dated 2013):

Columns and labels:
Sprague-Dawley (SD) rats = conditions: for maximum tolerated dose (MTD): escalating single-dose studies, Sprague-Dawley rats

`CC(C)[C@H](N)C(=O)N1CCC[C@H]1B(O)O` was tested, and the “maximum tolerated dose (MTD)” value (Sprague-Dawley (SD) rats) was 0.025 mg/kg and the “single dose that kills rats” value (Sprague-Dawley (SD) rats; rats, single dose) was 0.05 mg/kg.

For `C[C@H](N)C(=O)N1CCC[C@H]1B(O)O`, the “maximum tolerated dose (MTD)” value (Sprague-Dawley (SD) rats) was ≥ 5 mg/kg.

With `C[C@H](NC(=O)[C@@H](N)CCC(=O)O)B(O)O` the animals died (Sprague-Dawley (SD) rats; SD rats, 900 mg/kg single dose) was “three of six”.

In the case of `C[C@H](N)C(=S)N1CCC[C@H]1B(O)O`, the toxicity in monkeys (monkeys) is reported as “very toxic”.
